# Measurements: patent publication US20040265846A1, “Adrenergic receptors” (DUKE UNIVERSITY, priority 2002, published 2004)
# Test system: SNP G247R and wild type α1aAR
# Test: NE-induced receptor internalization (surface HA-tagged receptor)
# Conditions: NE 10 μM for 1 h, low-expressing cells
smiles,measurement,value
"NC[C@H](O)c1ccc(O)c(O)c1 [NE, (−)-norepinephrine]","receptor internalization, G247R vs WT",at a similar extent
